According to patent EP4682168A1, “ANTI-LIV-1 ANTIBODY AND ANTI-LIV-1 ANTIBODY-DRUG CONJUGATE, AND PHARMACEUTICAL USE THEREOF” (priority 2023, dated 2024):

Assays:
[1] = system: PC3 mouse subcutaneous tumors; assay: PC3 prostate cancer xenograft efficacy study; assay type: in vivo, CD1 athymic nude mice
Method: (§1) Tumor cells grown in the implantation culture of CD1 athymic nude mice: Calu-6 (2.5 × 10^6 cells in 50% matrigel) from ATCC, PC-3 (2.5 × 10^6 cells) from ATCC, and PA-1 (5 × 10^6 cells in 50% matrigel) from ATCC. Tumor cells grown in the implantation culture of NSG mice: HCC1806 (2.5 × 10^6 cells in 50% matrigel) from ATCC and MCF-7 (10 × 10^6 cells; for the in vivo growth of MCF-7, 8.5 µg/mL estradiol was added to the drinking water of female mice) from NCI.
(§2) When the tumors grew to 150 mm^3, the humanized LIV-1 ADC or the non-binding control ADC (1 mg/kg, 3 mg/kg, 6 mg/kg, or 10 mg/kg) was administered by intravenous injection once every four days for a total of four administrations (q4d × 4), by intravenous injection once every week for a total of 2 administrations (qw × 2), or by single intravenous injection. The tumor volume was monitored using a caliper, and the animals were euthanized when the tumor volume reached about 2000 mm^3. Tumor volume plots were continued for each group until one or more animals were euthanized. All animal procedures were conducted in a facility approved by the Association for Assessment and Accreditation of Laboratory Animal Care in accordance with protocols approved by the Institutional Animal Care and Use Committee. TGI was calculated as follows: TGI (%) = 1−[(Td−T0)/(Cd−C0)] × 100% [formula] […]

[2] = system: HCC1806 breast cancer cell line; assay: HCC1806 breast cancer xenograft efficacy study; assay type: in vivo; details: HCC1806 in NSG mice; day 21 after administration; dose only in FIG. 8
Method: as §1, §2

[3] = system: MCF7 breast cancer cell line; assay: MCF7 breast cancer xenograft efficacy study; assay type: in vivo; details: MCF7 in NSG mice, dose only in FIG. 7
Method: as §1, §2

[4] = system: MCF7-Liv1 #17; assay: In vitro inhibition of cell proliferation (CellTiterGlo2), MCF7-Liv1 #17; assay type: cell-based, human; details: MCF7-Liv1 #17 cells
From the text: (§3) In this experiment, a CellTiterGlo2 (Promega) reagent was used to evaluate the antiproliferative effect of the drug. The thermotolerant luciferase contained in this reagent can catalyze the mono-oxidation of fluorescein in the presence of Mg2+, ATP produced by living cells, and molecular oxygen, producing a stable "glow-type" luminescent signal, thereby determining the number of living cells in the culture by quantifying ATP, a marker for metabolically active cells.
(§4) The cell lines selected in this experiment were as follows: a human lung cancer cell (undifferentiated) line Calu6, and human breast cancer cell lines overexpressing LIV-1, i.e., MCF7-ATCC-LIV-1#7, #12, and #17.
(§5) In an incubator at 37 °C with 5% CO2, Calu6 cells were incubated in an RPMI-1640 medium containing 10% fetal bovine serum, and MCF7-ATCC-LIV-1 overexpressing cell lines were incubated in an EMEM medium containing 10% fetal bovine serum and 1 µg/mL. The four types of cells were seeded at 50 µL/well into 96-well plates at a density of 2 × 10^3 to 5 × 10^3 cells/well. After 24 h of incubation, different concentrations of antibody A-MMAE conjugates or control antibody-MMAE conjugates (IgG1-BrAc-MMAE) diluted with a culture medium were added at 100 µL/well. […] The glow values were determined, and the IC50 values (nM) of the anti-LIV-1 antibody A-BrAcMMAE conjugate for various cells were calculated (Table 3). […]

[5] = system: Calu-6 lung cancer cell line; assay: Calu-6 lung cancer xenograft efficacy study; assay type: in vivo, CD1 athymic nude mice; details: for TGI: day 25 after administration
Method: as §1
When the tumors grew to 150 mm^3, the humanized LIV-1 ADC or the non-binding control ADC (1 mg/kg, 3 mg/kg, 6 mg/kg, or 10 mg/kg) was administered by intravenous injection once every four days for a total of four administrations (q4d × 4), by intravenous injection once every week for a total of 2 administrations (qw × 2), or by single intravenous injection. The tumor volume was monitored using a caliper, and the animals were euthanized when the tumor volume reached about 2000 mm^3. Tumor volume plots were continued for each group until one or more animals were euthanized. All animal procedures were conducted in a facility approved by the Association for Assessment and Accreditation of Laboratory Animal Care in accordance with protocols approved by the Institutional Animal Care and Use Committee. TGI was calculated as follows: TGI (%) = 1−[(Td−T0)/(Cd−C0)] × 100% [formula]
where Td and Cd are the average tumor volumes of the treatment and control groups on the day of tumor volume measurement, and T0 and C0 are the average tumor volumes of the treatment and control groups on day 0.

[6] = system: Calu6; assay: In vitro inhibition of cell proliferation (CellTiterGlo2), Calu6; assay type: cell-based, human; details: Calu6 cells; Table 4-3
From the text: as §3, §4, §5

[7] = system: PA-1 mouse subcutaneous tumors; assay: PA-1 ovarian cancer xenograft efficacy study; assay type: in vivo, CD1 athymic nude mice; details: Single dose of 3 mg/kg, intravenous injection
Method: as §1, §2

B1: A-BrAcMMAE (conjugate)
heavy: EVQLVQSGAEVKKPGATVKISCKASGLNIEDYYMHWVQQAPGKGLEWMGWIDPENGDTEYAEKFQGRVTITADTSTNTAYMELSSLRSEDTAVYYCTVHNAHYGTWFAYWGQGTTVTVSSASTKGPSVFPLAPSSKSTSGGTAALGCLVKDYFPEPVTVSWNSGALTSGVHTFPAVLQSSGLYSLSSVVTVPSSSLGTQTYICNVNHKPSNTKVDKKV[sequence of human IgG1 Fc not given]
light: DIVMTQTPLSLSVTPGQPASISCRSSQTLVRSDGNTYLEWYLQKPGQSPQLLIYRVSNRFSGVPDRFSGSGSGTDFTLKISRVEAEDVGVYYCFQGSHVPYTFGGGTKLEIKRTVAAPSVFIFPPSDEQLKSGTASVVCLLNNFYPREAKVQWKVDNALQSGNSQESVTEQDSKDSTYSLSSTLTLSKADYEKHKVYACEVTHQGLSSPVTKSFNRGEC
modifications: non-natural residues
Tumor growth inhibition rate TGI% (day 24 after administration) ([1]; PC3 mouse subcutaneous tumors, Single dose of 10 mg/kg, intravenous injection): 116.19% | TGI ([1]; PC-3 in nude mice, day 11 after administration, dose only in FIG. 9): 101.5% | TGI [2]: 102.99% | mice whose tumors completely regressed ([3]; day 22 after administration): 4 mice | TGI ([3]; day 36 after administration): 126.3% | IC50 ([4]; Table 4-2, Experiment 2): 0.025 nM | IC50 ([4]; Table 4-2, Experiment 3): 0.0041 nM | TGI ([5]; multiple-dose administration, 3 mg/kg group): 75.14% | TGI ([5]; multiple-dose administration, 6 mg/kg group): 111.56% | mice whose tumors completely regressed ([5]; multiple-dose administration, 6 mg/kg group, day 28 after administration): 7 mice | TGI ([5]; single-dose administration, 6 mg/kg group): 52.72% | TGI ([5]; single-dose administration, 10 mg/kg group): 76.96% | IC50 [6]: 2.21 nM | Tumor growth inhibition rate TGI% (day 13 after administration) [7]: 93.77%
